Measured values: US4983610A, “Pyrimidine carboxylic acids and esters” (Bristol-Myers Squibb Company, priority 1990, dated 1991)
In brackets after ≈: the same amount, converted by molar mass.

Tested on: ADP-induced human platelet aggregation
Test: cells
Conditions: read-out: Inhibition of Human Platelet Aggregation (IC50) vs. ADP

Compound | IC50
COC(=O)CCCCCCCCn1cc(-c2ccccc2)c(-c2ccccc2)nc1=O [Example 1, Methyl 2-Oxo-4,5-diphenyl-1(2H)-pyrimidinenonanoate] | > 32 µg/mL
O=C(O)CCCCCCCCn1cc(-c2ccccc2)c(-c2ccccc2)nc1=O [Example 2, 2-Oxo-4,5-diphenyl-1(2H)-pyrimidinenonanoic Acid] | 12 µg/mL (≈ 29.7 µM)
COC(=O)CCCCCCCn1cc(-c2ccccc2)c(-c2ccccc2)nc1=O [Example 3, Methyl 2-Oxo-4,5-diphenyl-1(2H)-pyrimidineoctanoate] | > 32 µg/mL
O=C(O)CCCCCCCn1cc(-c2ccccc2)c(-c2ccccc2)nc1=O [Example 4, 2-Oxo-4,5-diphenyl-1(2H)pyrimidineoctanoic Acid] | 10 µg/mL (≈ 25.6 µM)
